In PubChem BioAssay AID1850 (Southern Research Specialized Biocontainment Screening …, 2009):
Only a part is listed here, and it is no random draw. Potency and affinity values are given separately. Some structures show a salt or complex split into parts, the way the source records it. Active and inactive are the calls of the source. How the calls were made is not given here.

Test: PhoP regulon inhibitors, Salmonella typhi PhoP promoter GFP reporter, confirmatory (AID 1850);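 further: 0% = induced wells with vehicle and 100% = uninduced wells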
Settings: fluorescence, 4 h, at 50 µM, active compounds read high

Compound | inhibition
COc1ccc(OP(C)(=O)Nc2cccc(F)c2)cc1 (centres undefined) | inactive: -5.08%
COc1ccccc1OP(C)(=O)Nc1cc(Cl)ccc1C (centres undefined) | inactive: 2.5%
Cc1cc(C)cc(OP(C)(N)=O)c1 (centres undefined) | inactive: -11.2%
CCOC(=O)c1ccc(NP(C)(=O)Oc2ccccc2)cc1 (centres undefined) | inactive: -10.3%
Cc1ccc(NP(C)(=O)Oc2ccccc2)c(C)c1 (centres undefined) | inactive: -0.8%
COc1ccccc1OP(C)(=O)Nc1ccc(C)cc1 (centres undefined) | inactive: -0.37%
Cc1cccc(C)c1OP(C)(N)=O (centres undefined) | inactive: 4.99%
CC(C)(C)c1ccc(OP(C)(=O)Nc2ccc(SC(F)(F)F)cc2)cc1 (centres undefined) | inactive: -6.94%
O=[N+]([O-])c1ccc2c(c1)C=Nc1ccccc1O2 | inactive: -3.36%
O=[N+]([O-])c1cc([N+](=O)[O-])c(Nc2cccnc2)c([N+](=O)[O-])c1 | inactive: -18%
CCN(CC)CCCOC(=O)C(O)(c1ccccc1)c1ccccc1 | inactive: 5.97%
CP(=O)(Nc1ccccn1)Oc1ccc(Cl)cc1 (centres undefined) | inactive: 1.52%
CCOP(C)(=S)SCC(=O)NC(C)C(=O)O (centres undefined) | inactive: 14.9%
O=[N+]([O-])c1cc([N+](=O)[O-])c(O)c([N+](=O)[O-])c1.c1ccc(Oc2ccncc2)cc1 | inactive: -5.22%
CCOC(=O)c1ccc(NP(C)(=O)Oc2ccc(OC)cc2)cc1 (centres undefined) | inactive: -4.98%
Cc1cc(C)cc(OP(C)(=O)Nc2ccc(SC(F)(F)F)cc2)c1 (centres undefined) | inactive: -1.5%
CCc1ccc(OP(C)(=O)N2CCN(c3ccc([N+](=O)[O-])cc3)CC2)cc1 (centres undefined) | inactive: 8.66%
CP(=O)(NC(=O)Nc1ccccc1)Oc1ccccc1 (centres undefined) | inactive: -12.8%
CP(=O)(Oc1ccccc1)OC(c1ccccc1)C(F)(F)F (centres undefined) | inactive: 2.47%
CP(=O)(Nc1ccc(SC(F)(F)F)cc1)Oc1ccc(Cl)cc1 (centres undefined) | inactive: -10.5%
Cc1cccc(C)c1OP(C)(=O)Nc1ccc(SC(F)(F)F)cc1 (centres undefined) | inactive: -1.16%
COc1ccccc1OP(C)(=O)Nc1ccccc1 (centres undefined) | inactive: -11.8%
CP(=O)(Nc1ccccc1Br)Oc1ccccc1 (centres undefined) | inactive: -5.32%

Compound | inhibition
CP(=S)(Nn1cnnc1)Oc1ccccc1 (centres undefined) | inactive: -3.92%
CP(=O)(Nc1ccc(SC(F)(F)F)cc1)Oc1ccccc1 (centres undefined) | inactive: -8.04%
CCCOc1ccc(NP(C)(=O)Oc2ccc(Cl)cc2)cc1 (centres undefined) | inactive: -4.95%
CN1CCCCC1COC(=O)C1(O)c2ccccc2CCc2ccccc21 (centres undefined) | inactive: 19.9%
COc1ccccc1OP(C)(=O)Nc1c(C)cccc1C (centres undefined) | inactive: 4.74%
CCOC(=O)C(CC)C1=NC(C)(C)Cc2ccccc21.O=[N+]([O-])c1cc([N+](=O)[O-])c(O)c([N+](=O)[O-])c1 (centres undefined) | inactive: 5.19%
O=[N+]([O-])c1cc([N+](=O)[O-])c(Nc2nnnn2CCO)c([N+](=O)[O-])c1 | inactive: -7.66%
CC1=C2N=C(C=C3N=C(C(C)=C4[N-][C@@](C)([C@@H]5N=C1[C@](C)(CCC(=O)NC[C@@H](C)OP(=O)([O-])O[C@H]1[C@@H](O)[C@@H](n6cnc7cc(C)c(C)cc76)O[C@@H]1CO)[C@H]5CC(N)=O)[C@@](C)(CC(N)=O)[C@@H]4CCC(N)=O)[C@@](C)(CC(N)=O)[C@@H]3CCC(N)=O)C(C)(C)[C@@H]2CCC(N)=O.[C-]#N.[Co+3] | inactive: -4.86%
Cc1nc2ccc3ccccc3c2s1.O=[N+]([O-])c1cc([N+](=O)[O-])c(O)c([N+](=O)[O-])c1 | inactive: -8.76%
O=[N+]([O-])c1cc([N+](=O)[O-])c(-c2cnn(-c3ccccc3)c2)c([N+](=O)[O-])c1 | inactive: -2.39%
O=[N+]([O-])c1cc([N+](=O)[O-])c(-n2nnc3ccccc32)c([N+](=O)[O-])c1 | inactive: 1.03%
CP(=O)(Nc1cccc(Br)c1)Oc1ccccc1 (centres undefined) | inactive: 12.2%
Cc1cc(C)cc(OP(C)(=O)Nc2ccccn2)c1 (centres undefined) | inactive: -11.7%
Cc1ccc(C)c(NP(C)(=O)Oc2ccccc2)c1 (centres undefined) | inactive: 6.84%
Cc1cc(C)cc(OP(C)(=O)Nc2ccc(C)cc2C)c1 (centres undefined) | inactive: 6.81%
CCOC(=O)c1ccc(NP(C)(=O)Oc2cc(C)cc(C)c2)cc1 (centres undefined) | inactive: 1.75%
COc1ccccc1OP(C)(=O)Nc1cccc(Br)c1 (centres undefined) | inactive: 7.26%
CC1=NCCc2c1[nH]c1ccccc21.O=[N+]([O-])c1cc([N+](=O)[O-])c(O)c([N+](=O)[O-])c1 | inactive: 7.38%
O=C(O)c1cccc(Nc2c([N+](=O)[O-])cc([N+](=O)[O-])cc2[N+](=O)[O-])c1 | inactive: 0.43%
O=[N+]([O-])c1cc([N+](=O)[O-])c(OC2CCCCC2O)c([N+](=O)[O-])c1 (centres undefined) | inactive: -3.57%
CCCCCOc1ccc(NP(C)(=O)Oc2ccc(Cl)cc2Cl)cc1 (centres undefined) | inactive: 4.21%
CP(=O)(Nc1ccccc1)Oc1ccc(F)cc1 (centres undefined) | inactive: -1.05%
CCN(CC)CCCOC(=O)C(O)(c1ccccc1)C1CCCCC1 (centres undefined) | inactive: -5.12%

Compound | inhibition
COc1ccc(OP(C)(=O)Nc2ccc(SC(F)(F)F)cc2)cc1 (centres undefined) | inactive: -2.97%
CCOC(=O)c1ccc(NP(C)(=O)Oc2ccc(F)cc2)cc1 (centres undefined) | inactive: -6.33%
COc1ccc2c(c1O)-c1c(O)c(OC)cc3c1[C@H](C2)[N+](C)(C)CC3.O=[N+]([O-])c1cc([N+](=O)[O-])c([O-])c([N+](=O)[O-])c1[O-] | inactive: -20.5%
O=C(OCCN1CCN(CCOCc2ccccc2)CC1)C(O)(c1ccccc1)c1ccccc1 | inactive: 0.983%
O=C(OC1CN2CCC1CC2)c1ccc([N+](=O)[O-])cc1 (centres undefined) | inactive: 1.73%
CC(C)c1ccc(OP(C)(=O)Nc2ccc(SC(F)(F)F)cc2)cc1 (centres undefined) | inactive: -0.81%
CP(=O)(Nc1ccccc1F)Oc1ccccc1 (centres undefined) | inactive: -4.12%
Cc1ccccc1NP(C)(=O)Nc1ccccc1C | inactive: 6.18%
CP(=O)(Nc1ccc2c(c1)OCCO2)Oc1ccccc1 (centres undefined) | inactive: 2.02%
CCOP(C)(=S)SCC(=O)NC(C)(CC)C(=O)O (centres undefined) | inactive: -4.18%
CP(=O)(Nc1ccc(SC(F)(F)F)cc1)Oc1ccc(F)cc1 (centres undefined) | inactive: -3.23%
O=[N+]([O-])c1cc([N+](=O)[O-])c(NCC2CCS(=O)(=O)C2)c([N+](=O)[O-])c1 (centres undefined) | inactive: 2.24%
O=[N+]([O-])c1ccc(OP2(=O)COCCO2)cc1 (centres undefined) | inactive: 13.8%
COc1ccc(NP(C)(=O)Oc2ccccc2OC)cc1 (centres undefined) | inactive: 6.47%
CN(C)CCOC(=O)C(O)(c1ccccc1)C1CCCCC1 (centres undefined) | inactive: 7.09%
COc1ccc(OP(C)(=O)Nc2cccc(Br)c2)cc1 (centres undefined) | inactive: -9.07%
CP(=O)(OC12CC3CC(CC(C3)C1)C2)OC12CC3CC(CC(C3)C1)C2 | inactive: 12.4%
CCOC(=O)c1ccc(NP(C)(=O)Oc2ccc(Cl)cc2)cc1 (centres undefined) | inactive: -3.59%
Nc1ccc2c(ccc3cccnc32)n1.O=[N+]([O-])c1cc([N+](=O)[O-])c(O)c([N+](=O)[O-])c1 | inactive: -9.21%
CN(C)C(=O)c1c([N+](=O)[O-])cc([N+](=O)[O-])cc1[N+](=O)[O-] | inactive: 6.9%
CP(=O)(Nc1ccc(Cl)cc1)Oc1ccc(F)cc1 (centres undefined) | inactive: -10.2%
CC(C)(C)c1ccc(OP(C)(=O)O)cc1 | inactive: -0.41%
COc1ccccc1OP(C)(=O)Nc1ccccc1Br (centres undefined) | inactive: 3.12%

Compound | inhibition
CCc1ccc(OP(C)(=O)Nc2cccnc2)cc1 (centres undefined) | inactive: 0.92%
CP(=O)(Oc1ccccc1)N1CCOC1=O (centres undefined) | inactive: 2.01%
O=C(OCCCN1CCCC1)C(O)(c1ccccc1)C1CCCCC1 (centres undefined) | inactive: 7.55%
COc1ccccc1OP(C)(=O)Nc1c(C)n(C)n(-c2ccccc2)c1=O (centres undefined) | inactive: -5.6%
COc1ccc(OP(C)(=O)Nc2ccc(Br)cc2)cc1 (centres undefined) | inactive: -4.29%
CCN(CC)CC(O)COC(=O)C(O)(c1ccccc1)C1CCCCC1 (centres undefined) | inactive: 1.82%
CCc1ccc(OP(C)(=O)O)cc1 | inactive: -10.5%
COc1ccccc1OP(C)(=O)Nc1ccc(C)cc1C (centres undefined) | inactive: -4.21%
CP(=O)(Nc1ccccn1)Oc1ccccc1 (centres undefined) | inactive: 5.06%
O=[N+]([O-])c1cc([N+](=O)[O-])c(Nc2ccccn2)c([N+](=O)[O-])c1 | inactive: 4.93%
Cc1c(NP(C)(=O)Oc2ccc(C(C)C)cc2)c(=O)n(-c2ccccc2)n1C (centres undefined) | inactive: 4.77%
CN(C)CCOC(=O)C(O)(c1ccccc1)C1CCCC1 (centres undefined) | inactive: -1.27%
COc1ccc(OP(C)(=O)Nc2ccccn2)cc1 (centres undefined) | inactive: -3.51%
COc1ccccc1OP(C)(=O)Nc1ccc(Br)cc1 (centres undefined) | inactive: -18%
CP(=O)(OCCOc1ccccc1)OCCOc1ccccc1 | inactive: 0.94%
CP(=O)(Nc1ccc(Cl)cc1Cl)Oc1ccccc1 (centres undefined) | inactive: -2.13%
Cc1nc2ccc3ccccc3c2o1.O=[N+]([O-])c1cc([N+](=O)[O-])c(O)c([N+](=O)[O-])c1 | inactive: 1.37%
COc1ccc(OP(C)(=O)Nc2ccccc2Br)cc1 (centres undefined) | inactive: -4.3%
COc1ccccc1OP(C)(=O)Nc1ccc(C)c(C)c1 (centres undefined) | inactive: 12.6%
Cc1cc(C)cc(OP(C)(=O)Nc2cccc(C(F)(F)F)c2)c1 (centres undefined) | inactive: 12.1%
